{"source": "patent US20020034534A1", "about": "“System and method for delivering a therapeutic agent over an extended period of time in conjuction with a receptor loading dose of the therapeutic agent” (priority 1999, published 2002)", "test_system": "opioid receptors", "data": [{"smiles": "C=CCN1CC[C@]23c4c5ccc(O)c4O[C@H]2C(=O)CC[C@@]3(O)[C@H]1C5", "note": "[naloxone]", "values": [{"measurement": "effect of reversing morphine, pellet only phase", "setting": "1 mg naloxone after total of 50 mg morphine", "value": "return to a baseline level of withdrawal symptoms"}, {"measurement": "effect of reversing morphine, pellet plus oral naltrexone phase", "setting": "Narcan 2 mg after morphine", "value": "no change in their withdrawal symptoms"}]}]}
